Patent US6252121A, “Metal-ligand complex catalyzed processes” (Union Carbide Chemicals & Plastics Technology Corporation, priority 1999, dated 2001)

Experiments:
[1] = Rhodium partition coefficient, hexane/dialdehyde system; details: Ligand E
[2] = Ligand partition coefficient, hexane/acetonitrile distribution test (HPLC); details: hexane:acetonitrile (1:1) solvent system

Structure (SMILES) | partition coefficient for the rhodium [1] | partition coefficient of the ligand (Kpartition) [2]
CCCCCC(C)(C)c1ccc(OP(Oc2ccc(C(C)(C)CCCCC)cc2C(C)(C)CCCCC)Oc2ccc(C(C)(C)CCCCC)cc2C(C)(C)CCCCC)c(C(C)(C)CCCCC)c1 [Ligand E] | 59 | 970
CC(C)(C)c1ccc(OP(Oc2ccc(C(C)(C)C)cc2C(C)(C)C)Oc2ccc(C(C)(C)C)cc2C(C)(C)C)c(C(C)(C)C)c1 [Ligand C] |  | 260
CC(C)(c1ccccc1)c1ccc(OP(Oc2ccc(C(C)(C)c3ccccc3)cc2C(C)(C)c2ccccc2)Oc2ccc(C(C)(C)c3ccccc3)cc2C(C)(C)c2ccccc2)c(C(C)(C)c2ccccc2)c1 [Ligand A] |  | 4.1
CC(C)(C)c1ccccc1OP(Oc1ccccc1C(C)(C)C)Oc1ccccc1C(C)(C)C [Ligand B] |  | 8.7
CCCCCCCCCC(C)(C)c1ccc(OP(Oc2ccc(C(C)(C)CCCCCCCCC)cc2C(C)(C)CCCCCCCCC)Oc2ccc(C(C)(C)CCCCCCCCC)cc2C(C)(C)CCCCCCCCC)c(C(C)(C)CCCCCCCCC)c1 [Ligand F] |  | > 1000
CCC(C)(C)c1ccc(OP(Oc2ccc(C(C)(C)CC)cc2C(C)(C)CC)Oc2ccc(C(C)(C)CC)cc2C(C)(C)CC)c(C(C)(C)CC)c1 [Ligand D] |  | 400
